pEC50: −log10 of the molar value.
Assays:
PCSK9/LDLR interaction [1] = molecular target: T1, PCSK9/LDLR interaction (Homo sapiens, UniProt Q8NBP7); assay: Recombinant cell based assay: LDLR upregulation in HEK293 cells transfected with LDLR and PCSK9; settings: for increase in the LDLR (intracellular recombinant LDLR upregulation) as comparable to control: compounds 1-50 μM; for IC50s (increase in the LDLR): PCSK9/LDLR HEK293 recombinant cell based assay
Method: HEK-293T cells were seeded into 96 well plates in a DMEM containing 10% Fetal Bovine Serum media and incubated overnight at 37° C. Cells were transiently transfected with LDLR and PCSK9 cDNA constructs using the Lipofectamine-LTX. Compounds (1-50 uM) were added, followed by additional 43 hours of incubation. The cells were lysed and analyzed for LDLR expression and cell viability determined as described in FIG. 7.
HEK-293T cells were seeded into 96 well plates in a DMEM containing 10% Fetal Bovine Serum media and incubated overnight at 37° C. Cells were transiently transfected with LDLR and PCSK9 cDNA constructs using the Lipofectamine-LTX. Compounds (1-50 uM) were added, followed by additional 43 hours of incubation. The cells were lysed and analyzed for LDLR expression and cell viability determined as described in FIG. 8. […] Compound SBC-130,022 has no effect in up-regulating LDLR.
(§1) Considering the difficulty in assaying the LDLR/PCSK9 binding, the approach was to develop and implement an innovative recombinant cell based assay where the full-length PCSK9 and the LDLR genes are expressed into HEK-293 cells, and allowed to decrease the LDLR level by PCSK9 (FIG. 7). Compounds that prevent the LDLR degradation without preventing the auto-processing and secretion of the PCSK9 were selected as potential candidates and were further evaluated using additional cell based assay using endogenously expressed LDLR in liver cells (HepG2 cells).
Preparation of constructs: the human full-length PCSK9 was cloned. The cDNA encoding the PCSK9 sequence with and without a FLAG epitope tag (DYKDDDDK) were cloned by PCR and subcloned into mammalian expression vector containing the cytomegalovirus promoter-enhancer (pCMV-PCSK9-FLAG) (pCDNA3.1/PCSK9). For LDLR, the coding sequence was constructed without tag in mammalian expression vector (pCMV-LDLR) (pCDNA3.1/LDLR). The constructs were confirmed by sequence analysis
The pCDNA3.1/PCSK9, and the pCDNA3.1/LDLR constructs were used to transiently transfect mammalian cells. The human embryonic kidney (HEK)-293 cells were seeded (1×10^5 cells/well) in 24-well plates. Expression plasmids ([…]) were transiently transfected into HEK-293 cells with lipofectamine (Invitrogen) according to the manufacturer's protocol. Twenty four to forty eight hours after transfection, cells were harvested. The cells were then be lysed. Both cell lysate and supernatant were subjected to SDS-PAGE and immunoblot analysis using an anti-PCSK9 or LDLR antibody.
240 compounds identified from the virtual screen in a cell based assay for their potential to upregulate the LDLR in the presence of PCSK9 were tested as described above. Initial screening was done using 50 μM of the compounds. Each compound was added to the cell media in triplicates, and intrecellar LDLR was detected as described above. Each set of compounds were screened at least twice with all appropriate controls. Compounds that upregulate the LDLR were selected for further evaluation.
From the initial screening, 24 compounds were identified as potential hits. Hits confirmation was repeated in triplicates using 50 μM.

Sequences of proteins named here, by UniProt entry; tags and fusion partners are left off. Residues count along the entry.
UniProt Q8NBP7, 153-692 limits assumed: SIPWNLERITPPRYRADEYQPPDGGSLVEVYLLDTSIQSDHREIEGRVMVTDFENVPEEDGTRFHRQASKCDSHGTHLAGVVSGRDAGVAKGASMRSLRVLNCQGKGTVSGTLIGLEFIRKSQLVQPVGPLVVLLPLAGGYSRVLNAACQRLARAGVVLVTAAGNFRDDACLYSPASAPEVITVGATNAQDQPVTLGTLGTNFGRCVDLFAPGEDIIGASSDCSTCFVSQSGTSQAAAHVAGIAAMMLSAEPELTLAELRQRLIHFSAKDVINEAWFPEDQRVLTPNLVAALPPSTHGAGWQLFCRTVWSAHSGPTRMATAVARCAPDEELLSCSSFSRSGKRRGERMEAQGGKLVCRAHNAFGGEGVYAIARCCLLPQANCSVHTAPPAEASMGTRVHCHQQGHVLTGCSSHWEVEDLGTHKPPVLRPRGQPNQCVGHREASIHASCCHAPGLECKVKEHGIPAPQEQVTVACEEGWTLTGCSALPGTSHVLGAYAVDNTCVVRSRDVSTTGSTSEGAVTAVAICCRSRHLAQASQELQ
UniProt Q8NBP7, 31-152 partner limits assumed: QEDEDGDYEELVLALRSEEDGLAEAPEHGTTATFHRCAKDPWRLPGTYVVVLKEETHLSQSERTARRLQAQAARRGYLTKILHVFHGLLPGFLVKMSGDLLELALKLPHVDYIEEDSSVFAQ

PCSK9/LDLR interaction [2] = molecular target: T1, PCSK9/LDLR interaction; assay: LDLR upregulation in HepG2 cells
Method: HepG2 cells were seeded into 96 well plates in a MEM containing 10% Fetal Bovine Serum media and incubated overnight at 37° C. Cells were transiently transfected with PCSK9 cDNA constructs using the Lipofectamine-LTX. Compounds (1-50 uM) were added, followed by additional 43 hours of incubation. The cells were lysed and analyzed for LDLR expression and cell viability determined as described in FIG. 8.
as §1
The compounds SBC-110,424, SBC-110, 433, and SBC-115,076 were also validated for their ability to up-regulate the endogenously expressed LDLR in HepG2 cells.

[3] = HEK293 cells transfected with LDLR and PCSK9

SMILES	increase in the LDLR (intracellular recombinant LDLR upregulation) as comparable to control (PCSK9/LDLR interaction [1]; [3])	IC50s (increase in the LDLR) (PCSK9/LDLR interaction [1])	up-regulation of endogenously expressed LDLR (PCSK9/LDLR interaction [2]; compounds 1-50 uM)	pEC50 (PCSK9/LDLR interaction [2]; read-out: EC50 of up-regulation of LDLR, endogenously expressed LDLR, transfected with PCSK9, compounds 1-50 uM, 43 hours)	pEC50 (PCSK9/LDLR interaction [1]; read-out: EC50 of LDLR up-regulation, HEK293 cells transfected with LDLR and PCSK9, compounds 1-50 uM, 43 hours incubation)
CN(C)C(=O)c1ccc(NC(=O)c2cc3ccccc3[nH]2)cc1	concentration dependent increase	low uM range	–	–	–
Cc1ccc(CCc2nc(C(=O)Nc3ccc(C(N)=O)cc3)cs2)cc1	concentration dependent increase	low uM range	–	–	–
COc1cccc(C(=O)Nc2cnn(C(C)(C)C(=O)NCc3ccccc3)c2)c1	–	low uM range	concentration dependent up-regulation	5.54	5.80
CC(C)(NC(=O)N1CCC(C(N)=O)CC1)c1cccc(C(C)(C)NC(=O)N2CCC(C(N)=O)CC2)c1	concentration dependent increase	low uM range	–	–	–
CCN(CC)C(=O)c1ccc(NC(=O)CSc2nnc(-c3cccs3)n2C2CC2)cc1	concentration dependent increase	low uM range	–	–	–
Cc1ccccc1Nc1nnc(SCC(=O)Nc2ccc(C(N)=O)cc2)s1	concentration dependent increase	low uM range	–	–	–
CNC(=O)c1ccc(NC(=O)c2cc(C)on2)cc1	concentration dependent increase	low uM range	–	–	–
NC(=O)c1cc(NC(=O)CSc2nnc(-c3ccc(Cl)cc3)n2CC2CCCO2)cc(C(N)=O)c1 (centres unmarked)	concentration dependent increase	low uM range	–	–	–
COc1ccc(-n2c(SCC(=O)Nc3ccc(C(N)=O)cc3)nnc2-c2cccc(OC)c2)cc1	concentration dependent increase	low uM range	–	–	–
